Results reported in patent US8283358B2, “N-sulfonamido polycyclic pyrazolyl compounds” (Elan Pharmaceuticals, Inc., priority 2008, dated 2012).

biological target: gamma-secretase (partially purified extract of IMR-32 cell membranes; substrate MBP-C125 Swe fusion protein, cleavage at the Aβ40 site) (Homo sapiens, UniProt P49768); assay: Gamma-secretase APP enzyme assay (Example A); format: biochemical; settings: read-out: γAPP IC50; class symbols; assay described in Example A

| Compound | IC50 [nM] |
| --- | --- |
| O=S(=O)(c1ccc(C(F)(F)F)cc1)N1C2c3ccccc3C1C(O)c1[nH]ncc12 (single isomer, unassigned) [195] | 100 to 499 |
| O=S(=O)(c1ccc(C(F)(F)F)nc1)N1C2c3ccccc3C1C(O)c1[nH]ncc12 (stereo not drawn) | < 100 |
| COC(=O)COCCNc1ccc(C2CC3Cc4[nH]ncc4C(C2)N3S(=O)(=O)c2ccc(C(F)(F)F)cc2)cc1 (stereo not drawn) | > 1000 |
| O=S(=O)(c1ccc(C(F)(F)F)nc1)N1C2c3cn[nH]c3C(O)C1c1cccc(F)c12 (stereo not drawn) | < 100 |
| O=S(=O)(c1ccc(C(F)(F)F)nc1)N1C2c3cn[nH]c3C(F)C1c1c(F)cccc12 (stereo not drawn) | < 100 |
| O=S(=O)(c1ccc(C(F)(F)F)nc1)N1C2c3ccccc3C1C(F)c1[nH]ncc12 (single isomer, unassigned) | > 1000 |

Next, values leading:

| IC50 [nM] | Compound |
| --- | --- |
| < 100 | COC(=O)CCNc1ccc(C2CC3Cc4[nH]ncc4C(C2)N3S(=O)(=O)c2ccc(C(F)(F)F)cc2)cc1 (stereo not drawn) |
| < 100 | O=S(=O)(c1ccc(C(F)(F)F)cc1)N1C2c3ccccc3C1C(O)c1[nH]ncc12 (single isomer, unassigned) [175] |
| < 100 | O=S(=O)(c1ccc(C(F)(F)F)cc1)N1C2c3ccccc3C1C(F)c1[nH]ncc12 (single isomer, unassigned) |
